We go through 1 compound from ChEMBL document CHEMBL4425117 (Bioorg Med Chem Lett, 2016).

Sequences of proteins named here, by UniProt entry; tags and fusion partners are left off.
UniProt P25101, whole entry: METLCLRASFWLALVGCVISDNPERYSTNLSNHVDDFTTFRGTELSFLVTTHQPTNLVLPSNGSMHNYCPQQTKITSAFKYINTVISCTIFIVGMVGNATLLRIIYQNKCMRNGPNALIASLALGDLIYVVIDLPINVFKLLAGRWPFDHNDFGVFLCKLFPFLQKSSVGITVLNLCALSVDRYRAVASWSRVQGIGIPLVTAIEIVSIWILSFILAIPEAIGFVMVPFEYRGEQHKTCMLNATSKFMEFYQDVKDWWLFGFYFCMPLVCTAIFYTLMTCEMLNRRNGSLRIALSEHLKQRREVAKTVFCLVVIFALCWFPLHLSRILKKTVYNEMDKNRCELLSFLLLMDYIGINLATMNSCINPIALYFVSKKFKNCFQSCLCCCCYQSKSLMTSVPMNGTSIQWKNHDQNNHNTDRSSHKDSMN

The test concerns the target Endothelin-1 receptor (Homo sapiens, UniProt P25101). The experiment in a line: Displacement of [125I]-ET-1 from human ETA receptor expressed in CHO cell membranes after 2 hrs by scintillation counting.

The term IC50 denotes the concentration at which inhibition is half-maximal. The low end stands for greater potency in that assay, the high end for weaker potency in that assay. `COc1nc(C)cnc1NS(=O)(=O)c1cccnc1-c1ccc(-c2nnco2)cc1` [ZIBOTENTAN]: the IC50 was 21 nM.
